Data on one substance can be found in US20060073183A1, “Therapeutic composition and a method of coating implantable medical devices” (Advanced Cardiovascular Systems, Inc., priority 2002, published 2006).

This data set can be described thus: Dissolution in formamide with heating. Format: physicochemical. The following applies: about 0.1 gram in 1 milliliter formamide, heated at 50° C, a few minutes. The protocol:
Formamide (H—CO—NH2) can be used as a solubilizing agent for heparin, heparin derivatives, or PArg. Heparin or a heparin derivative or PArg can be dissolved in formamide. At least 8% by mass of a solution of heparin or a derivative thereof or PArg in formamide can be prepared.
About 1 milliliter (1.133 gram) of formamide was added to 0.1 gram of sodium heparin (NaHep) obtained from Aldrich Chemical Co. of Milwaukee, Wis. The suspension was heated at a temperature about 70° C. After about 5 minutes of heating, sodium heparin was fully dissolved in formamide to form about 8.1 mass % NaHep solution. About 0.15 gram of EVAL was dissolved in about 0.85 gram of dimethylacetamide (DMAC) to form 15% (mass) solution of EVAL. About 1 gram of the 15% EVAL solution was further dissolved in a mixture of about 2 grams of DMAC and about 1 gram of methyl alcohol. This final EVAL solution was added to the NaHep-formamide solution prepared above. The two solutions were thoroughly mixed to form a clear heparin-polymer (NaHep-EVAL) solution.
About 1 milliliter (1.133 gram) of formamide was added to about 0.1 gram of poly-L-arginine sulfate. The suspension was heated at a temperature of 50° C. After a few minutes of heating, PArg was fully dissolved in formamide to form about 8.1 mass % PArg solution. About 0.15 gram of EVAL was dissolved in about 0.85 gram of DMAC to form 15% (mass) solution of EVAL. […]

For the substance poly-L-arginine sulfate, the “concentration of solution with substance fully dissolved in formamide” value is “about 8.1 mass %”.
